Source: patent US20060122247A1

The chains behind the UniProt entries cited, without tags or fusion partners.
UniProt P61169, whole entry: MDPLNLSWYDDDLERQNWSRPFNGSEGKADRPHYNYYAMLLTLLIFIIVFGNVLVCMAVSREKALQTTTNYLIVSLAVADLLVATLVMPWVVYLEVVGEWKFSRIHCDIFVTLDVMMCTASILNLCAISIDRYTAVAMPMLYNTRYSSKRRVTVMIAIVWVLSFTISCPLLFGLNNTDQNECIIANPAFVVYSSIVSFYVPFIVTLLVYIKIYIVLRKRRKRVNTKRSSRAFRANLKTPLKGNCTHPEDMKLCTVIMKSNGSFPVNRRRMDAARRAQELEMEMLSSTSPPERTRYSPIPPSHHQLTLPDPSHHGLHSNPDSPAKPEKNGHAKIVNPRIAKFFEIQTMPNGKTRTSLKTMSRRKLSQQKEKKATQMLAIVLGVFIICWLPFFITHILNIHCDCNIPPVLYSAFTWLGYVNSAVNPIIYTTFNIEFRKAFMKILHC
UniProt P31652, whole entry: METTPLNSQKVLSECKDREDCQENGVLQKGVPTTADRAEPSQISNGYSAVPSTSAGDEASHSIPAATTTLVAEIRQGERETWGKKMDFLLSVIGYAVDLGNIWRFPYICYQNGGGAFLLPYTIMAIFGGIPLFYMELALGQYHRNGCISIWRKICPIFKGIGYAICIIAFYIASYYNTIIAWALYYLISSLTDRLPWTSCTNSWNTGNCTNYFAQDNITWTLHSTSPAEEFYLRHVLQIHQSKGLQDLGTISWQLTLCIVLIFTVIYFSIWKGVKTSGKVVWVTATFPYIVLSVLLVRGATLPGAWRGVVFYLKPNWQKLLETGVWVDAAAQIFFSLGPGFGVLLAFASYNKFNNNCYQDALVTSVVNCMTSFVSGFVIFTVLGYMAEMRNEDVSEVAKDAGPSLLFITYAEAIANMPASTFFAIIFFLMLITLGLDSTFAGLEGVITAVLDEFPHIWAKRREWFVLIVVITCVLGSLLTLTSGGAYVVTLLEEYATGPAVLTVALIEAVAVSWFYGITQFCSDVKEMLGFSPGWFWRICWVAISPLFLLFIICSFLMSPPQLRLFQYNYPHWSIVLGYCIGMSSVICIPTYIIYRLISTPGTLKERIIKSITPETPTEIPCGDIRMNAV
UniProt P14416, whole entry: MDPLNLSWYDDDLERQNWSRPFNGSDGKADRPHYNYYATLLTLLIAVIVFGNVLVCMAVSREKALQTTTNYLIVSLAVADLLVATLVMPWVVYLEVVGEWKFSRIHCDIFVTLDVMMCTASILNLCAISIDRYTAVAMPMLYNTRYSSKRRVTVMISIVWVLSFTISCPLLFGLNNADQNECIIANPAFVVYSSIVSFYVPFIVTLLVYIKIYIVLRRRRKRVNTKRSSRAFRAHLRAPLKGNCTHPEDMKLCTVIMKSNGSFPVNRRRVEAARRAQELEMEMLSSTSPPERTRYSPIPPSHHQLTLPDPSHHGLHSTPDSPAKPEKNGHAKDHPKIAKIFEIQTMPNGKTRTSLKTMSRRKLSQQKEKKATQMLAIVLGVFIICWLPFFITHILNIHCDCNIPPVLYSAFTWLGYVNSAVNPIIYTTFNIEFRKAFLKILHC

How the values were obtained:
[1] = molecular target: dopamine-D2 receptors (Rattus norvegicus, UniProt P61169); experiment: In vitro affinity for dopamine-D2 receptors ([3H]-spiroperidol receptor binding assay)
Description: In Vitro Affinity for Dopamine-D2 Receptors
Affinity of the compounds for dopamine-D2 receptors was determined using the receptor binding assay described by 1. Creese, R. Schneider and S. H. Snyder: “[^3H]-Spiroperidol labels dopamine receptors in rat pituitary and brain”, Eur. J. Pharmacol., 46, 377-381, 1977.

[2] = molecular target: serotonin reuptake sites (Rattus norvegicus, UniProt P31652); experiment: In vitro affinity for serotonin reuptake sites ([3H]-paroxetine binding assay)
Description: In Vitro Affinity for Serotonin Reuptake Sites
Affinity of the compounds for serotonin reuptake sites was determined using the receptor binding assay described by E. Habert et al.,: “Characterisation of [^3H]-paroxetine binding to rat cortical membranes”, Eur. J. Pharmacol., 118, 107-114, 1985.

[3] = molecular target: Human dopamine D2,L receptors (Homo sapiens, UniProt P14416); experiment: Inhibition of forskolin-induced [3H]-cAMP accumulation in CHO-K1 cells; details: cloned human dopamine D2,L receptors in CHO-K1 cells, full agonist ε=1, full antagonist ε=0
Description: Inhibition of Forskolin-Induced [^3H]-CAMP Accumulation
The in vitro functional activity at dopamine-D2 receptors, including the intrinsic activity (ε) of the compounds of the invention was measured by their ability to inhibit forskolin-induced [^3H]-cAMP accumulation.
Human dopamine D2,L receptors were cloned in fibroblast cell line CHO-K1 cells and obtained from Dr. Grandy, Vollum Institute, Portland, Oreg., USA. CHO cells were grown in a Dulbecco's modified Eagle's medium (DMEM) culture medium, supplemented with 10% heat-inactivated fetal calf serum, 2 mM glutamine, 1 mM pyruvate, 5000 units/ml penicillin, 5000 μg/ml streptomycin and 200 μg/ml at 37° C. in 93% air/7% CO2. For incubation with test compounds, confluent cultures grown in 24 wells plates were used. Each condition or substance was routinely tested in quadruplicate. Cells were loaded with 1 μCi [^3H]-adenine in 0.5 ml medium/well. After 2 hours, cultures were washed with 0.5 ml PBS containing 1 mM of the phosphodiesterase inhibitor isobutylmethylxanthine (IBMX) and incubated for 20 min with 0.5 ml PBS containing 1 mM IBMX and forskolin with or without test compound After aspiration the reaction was stopped with 1 ml trichloroacetic acid 5% (w/v). […] Eluates were mixed with 7 ml Insta-gel and radioactivity was counted with a liquid scintillation counter. The conversion of [^3H]-ATP into [^3H]-cAMP was expressed as the ratio in percentage radioactivity in the cAMP fraction as compared to combined radioactivity in both cAMP and ATP fractions, and basal activity was subtracted to correct for spontaneous activity.
Test compounds were obtained as 10 mM stock solutions in 100% DMSO, and diluted in PBS/IBMX to final concentrations. […] From quadruplicate data counts, the mean was taken as an estimate for drug-induced, receptor-mediated effects at specified second messenger accumulation, expressed as percentage of control values (forskolin-stimulated cAMP accumulation, subtracted by basal activity). […] Antagonist potency is assessed by co-incubating cells with a fixed agonist concentration and specified antagonist concentrations. […]

SMILES | Dopamine-D2 binding pKi ([1]; tested form: HCl) | 5-HT reuptake binding pKi ([2]; tested form: HCl) | Dopamine-D2 cAMP accum ε (intrinsic activity) ([3]; tested form: HCl) | Dopamine-D2 binding pKi [1] | 5-HT reuptake binding pKi [2] | Dopamine-D2 cAMP accum ε (intrinsic activity) [3]
CN(CCCc1coc2ccc(F)cc12)CCOc1cccc2[nH]c(=O)oc12 | 8.0 | 8.4 | 0.20 |  |  | 
O=c1[nH]c2cccc(OCCN(CCCF)CCCC3=CCc4ccc(F)cc43)c2o1 | 7.6 | >9.0 | 0.23 |  |  | 
O=c1[nH]c2cccc(OCCNCCCOc3cccc(F)c3)c2o1 |  |  |  | 8.4 | 7.4 | 0.39

Like-named read-outs stand apart in the source and are kept apart here.
